Where “and” joins values, the source holds several entries; their conditions need not be identical. Equal values may be shown once. The list shows a part of the results, in another mix than the full data. Results filed as inconclusive are left out. Calls of active or inactive are those of the source. Unless noted, the call rests on the fitted dose curve.
Tests used:
[1] = qHTS assay to identify small molecule antagonists of the sonic hedgehog signaling (Shh) pathway (AID 1259369); further: nearly all actives have a fitted effect of over 45% in size; further: potency means the concentration at half of the fitted maximal effect
Source text: U.S. Tox21 Program National Center for Advancing Translational Sciences [NCATS] NIH Chemical Genomics Center [NCGC] U.S. Environmental Protection Agency [EPA] National Institutes of Environmental Health Sciences [NIEHS] National Toxicology Program [NTP] U.S. Food and Drug Administration [FDA] Tox21 Assay Overview: The sonic hedgehog (Shh) pathway is essential for normal embryonic development. Dysregulation of the Shh pathway can cause severe developmental defects in organs. Therefore chemicals that interfere with the pathway are potential developmental toxicants. A cell line designated 3T3Gli1-Luc (DMB/OARSA/CFSAN/FDA, Laurel, MD), a NIH/3T3 derived clone containing stably integrated Gli1-Luc reporter is used to detect chemical interference of the Shh pathway, by changes in the expression of the firefly Luc gene under the control of the Gli1 transcriptional response element. This cell line was used to screen Tox21 libraries for identifying and prioritizing the potential developmental toxicants that interfere Shh pathway. Conditioned medium-stimulated mode was used to screen for chemicals inhibiting Shh signaling.
Tox21 Assay Protocol Summary: 3T3 Gli1-Luc cells were dispensed at 2,000 per well in 5uL of culture medium into white solid bottom 1536-well plates (Greiner Bio-One, Monroe, NC) using a Multidrop Combi (Thermo Scientific, Waltham, MA) dispenser. The assay plates were incubated at 37 C and 5% CO2 for 4hr, and then 23nL of compounds dissolved in DMSO and positive control were transferred using a Pintool station (Wako, San Diego, CA). The compound transfer was followed by the addition of 1ul conditioned medium or assay buffer using two separate tips of Flying Reagent Dispenser (FRD, Aurora Discovery, San Diego, CA). The assay plates were incubated at 37C and 5% CO2 for 24hr. For luciferase read, 4uL of Amplite Luciferase reporter gene assay reagent (AAT Bioquest, Inc. Sunnyvale, CA) was added to each well of the assay plates using FRD and incubated at room temperature for 30min. The luminescence signal was measured using a ViewLux plate reader (Perkin Elmer, Shelton, CT).

Amino acid sequences for entries named in this document (tags omitted).
UniProt P16473, whole entry: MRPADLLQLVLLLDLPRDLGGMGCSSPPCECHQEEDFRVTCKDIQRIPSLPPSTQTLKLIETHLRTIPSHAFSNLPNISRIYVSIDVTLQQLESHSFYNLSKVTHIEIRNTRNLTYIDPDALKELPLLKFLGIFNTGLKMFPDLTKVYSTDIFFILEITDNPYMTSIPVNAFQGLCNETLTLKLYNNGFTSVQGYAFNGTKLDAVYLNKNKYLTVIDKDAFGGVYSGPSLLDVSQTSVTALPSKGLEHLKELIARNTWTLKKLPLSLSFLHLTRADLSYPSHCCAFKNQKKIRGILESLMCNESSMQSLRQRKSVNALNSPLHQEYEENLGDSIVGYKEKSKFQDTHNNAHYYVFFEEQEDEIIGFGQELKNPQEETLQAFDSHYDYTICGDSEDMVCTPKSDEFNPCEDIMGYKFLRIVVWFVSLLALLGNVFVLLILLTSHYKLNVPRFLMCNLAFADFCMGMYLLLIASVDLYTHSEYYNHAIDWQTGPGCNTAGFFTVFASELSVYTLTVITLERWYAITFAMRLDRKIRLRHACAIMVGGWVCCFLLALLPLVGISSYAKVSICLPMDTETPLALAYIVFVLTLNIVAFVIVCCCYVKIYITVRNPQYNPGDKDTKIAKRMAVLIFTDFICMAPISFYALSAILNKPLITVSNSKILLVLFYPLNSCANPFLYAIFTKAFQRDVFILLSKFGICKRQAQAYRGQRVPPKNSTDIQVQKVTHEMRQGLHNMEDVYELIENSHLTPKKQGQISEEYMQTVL
UniProt Q92731, whole entry: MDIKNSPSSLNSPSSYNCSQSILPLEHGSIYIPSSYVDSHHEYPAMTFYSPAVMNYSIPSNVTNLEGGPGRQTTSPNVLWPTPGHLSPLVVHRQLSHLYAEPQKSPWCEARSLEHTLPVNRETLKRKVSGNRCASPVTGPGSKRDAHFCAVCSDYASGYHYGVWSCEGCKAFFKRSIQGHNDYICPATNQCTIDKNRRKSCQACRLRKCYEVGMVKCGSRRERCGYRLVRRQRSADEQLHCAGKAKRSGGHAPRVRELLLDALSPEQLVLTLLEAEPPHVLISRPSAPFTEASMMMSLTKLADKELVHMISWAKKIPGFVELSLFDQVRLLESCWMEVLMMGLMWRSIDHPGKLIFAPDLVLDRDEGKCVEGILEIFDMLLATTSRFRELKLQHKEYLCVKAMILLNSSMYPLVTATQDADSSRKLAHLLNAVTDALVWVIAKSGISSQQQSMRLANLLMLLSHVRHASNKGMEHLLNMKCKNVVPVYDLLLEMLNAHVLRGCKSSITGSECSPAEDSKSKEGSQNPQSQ
UniProt P10275, whole entry: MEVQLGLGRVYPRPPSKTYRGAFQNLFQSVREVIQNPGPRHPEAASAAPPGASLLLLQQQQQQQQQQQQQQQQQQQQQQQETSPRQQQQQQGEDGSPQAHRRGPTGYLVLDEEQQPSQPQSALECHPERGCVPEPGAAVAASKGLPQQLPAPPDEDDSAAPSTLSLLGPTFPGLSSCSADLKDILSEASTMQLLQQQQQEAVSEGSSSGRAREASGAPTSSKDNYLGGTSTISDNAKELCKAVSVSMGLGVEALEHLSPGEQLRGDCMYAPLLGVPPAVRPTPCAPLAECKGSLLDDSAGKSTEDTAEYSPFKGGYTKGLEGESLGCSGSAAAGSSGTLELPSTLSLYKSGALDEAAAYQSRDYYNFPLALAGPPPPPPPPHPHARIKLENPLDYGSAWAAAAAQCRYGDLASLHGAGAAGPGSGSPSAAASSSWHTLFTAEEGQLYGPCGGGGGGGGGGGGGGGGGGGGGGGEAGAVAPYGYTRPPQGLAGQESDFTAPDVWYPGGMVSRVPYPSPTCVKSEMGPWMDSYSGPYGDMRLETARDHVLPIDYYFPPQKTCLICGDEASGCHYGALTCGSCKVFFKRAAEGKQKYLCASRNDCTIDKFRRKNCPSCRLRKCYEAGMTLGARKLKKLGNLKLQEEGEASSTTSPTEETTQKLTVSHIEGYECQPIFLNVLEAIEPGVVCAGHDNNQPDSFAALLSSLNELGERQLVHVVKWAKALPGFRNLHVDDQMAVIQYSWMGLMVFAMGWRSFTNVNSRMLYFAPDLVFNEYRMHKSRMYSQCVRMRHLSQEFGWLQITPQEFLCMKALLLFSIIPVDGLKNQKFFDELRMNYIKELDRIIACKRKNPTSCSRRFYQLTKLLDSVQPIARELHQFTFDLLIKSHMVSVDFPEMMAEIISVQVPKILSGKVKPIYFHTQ
UniProt P03372, whole entry: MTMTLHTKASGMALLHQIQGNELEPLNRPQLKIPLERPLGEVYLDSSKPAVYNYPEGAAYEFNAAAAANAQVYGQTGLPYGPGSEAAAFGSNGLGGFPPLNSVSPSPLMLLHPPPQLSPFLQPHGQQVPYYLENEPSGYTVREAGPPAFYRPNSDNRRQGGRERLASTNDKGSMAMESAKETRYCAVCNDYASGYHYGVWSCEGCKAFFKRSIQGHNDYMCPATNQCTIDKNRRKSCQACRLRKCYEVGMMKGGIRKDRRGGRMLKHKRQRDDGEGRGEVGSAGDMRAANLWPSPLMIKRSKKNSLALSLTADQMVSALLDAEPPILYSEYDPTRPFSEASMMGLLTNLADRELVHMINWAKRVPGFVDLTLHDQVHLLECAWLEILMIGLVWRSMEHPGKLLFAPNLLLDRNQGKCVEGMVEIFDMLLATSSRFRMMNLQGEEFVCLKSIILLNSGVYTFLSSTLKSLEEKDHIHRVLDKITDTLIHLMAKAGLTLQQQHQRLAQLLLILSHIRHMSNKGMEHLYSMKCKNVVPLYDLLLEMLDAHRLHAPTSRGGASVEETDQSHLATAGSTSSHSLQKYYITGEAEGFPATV

[2] = qHTS assay to identify small molecule agonists of the androgen receptor (AR) signaling pathway in the presence of an antagonist - cell viability counter screen (AID 1259379; active means well fitted curve in the direction sought with a large enough effect in the repeat runs; an effect the other way counts as inactive or inconclusive;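 further: MDA-kb2 human breast cancer cells carrying an MMTV luciferase reporter; nearly all actives have a fitted effect of over 25% in size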); conditions: MDA-kb2 viability, CellTiter-Fluor, 16 h; at 92.4 µM (top of the series)
Source text: (§1) National Center for Advancing Translational Sciences [NCATS]
(§2) NIH Chemical Genomics Center [NCGC]
(§3) U.S. Environmental Protection Agency [EPA]
(§4) National Institutes of Environmental Health Sciences [NIEHS]
(§5) National Toxicology Program [NTP]
(§6) U.S. Food and Drug Administration [FDA]
Androgen receptor (AR) is an important member of nuclear receptor family. Its signaling plays a critical role in AR-dependent prostate cancer and other androgen related diseases. Considerable attention has been given in the past decades to develop methods to study and screen for the environmental chemicals that have the potential to interfere with metabolic homeostasis, reproduction, developmental and behavioral functions. Therefore AR binding assay for screening against androgen agonists and antagonists can be used to identify potential endocrine disruptors. […]
MDA-kb2 cells (cells cultured without CO2) were dispensed at 3,000 cells/well in 4uL of culture medium into white wall/solid-bottom 1536-well plates (Corning Life Sciences, Corning, NY) using a Multidrop Combi (Thermo Fisher Scientific Inc., Waltham, MA) dispenser. […] After 1hr incubation at 37C and 0% CO2, the fluorescence signal was measured using a ViewLux plate reader (PerkinElmer, Shelton, CT).

[3] = qHTS assay to identify small molecule agonists of the estrogen receptor beta (ER-beta) signaling pathway - cell viability counter screen (AID 1259380; active means well fitted curve in the direction sought with a large enough effect in the repeat runs; an effect the other way counts as inactive or inconclusive; further: nearly all actives have a fitted effect of over 30% in size); conditions: ER-beta-bla HEK293T viability, CellTiter-Glo luminescence, 16 h; at 92.4 µM (top of the series)
Source text: as §1, §2, §3, §4, §5, §6
Estrogen receptor (ER), a nuclear hormone receptor, plays an important role in development, metabolic homeostasis and reproduction. Two subtypes of ER, ER-alpha and ER-beta, have similar expression patterns with some uniqueness in both types. Endocrine disrupting chemicals (EDCs) and their interactions with steroid hormone receptors like ER causes disruption of normal endocrine function. […]
ER-beta-UAS-bla HEK293T cells were dispensed at 2,000 cells/5 uL of assay medium containing 2% charcoal stripped FBS per well into black wall/clear-bottom 1536-well plates using a Multidrop Combi (ThermoFisher Scientific, Waltham, MA) dispenser. […] Then 1 uL of LiveBLAzerTM B/G FRET substrate was added using a BioRAPTR FRD (Flying Reagent Dispenser, Aurora Discovery, San Diego, CA) and then the plates were incubated at room temperature for 2 hours, and fluorescence intensity was measured by an Envision plate reader (PerkinElmer, Shelton, CT). For cell viability readout that measures cytotoxicity, 4 uL/well of CellTiter-Glo reagent was added into the assay plates using a FRD. […]

[4] = qHTS assay to identify small molecule antagonists of the estrogen receptor beta (ER-beta) signaling pathway - cell viability counter screen (AID 1259382; active means well fitted curve in the direction sought with a large enough effect in the repeat runs; an effect the other way counts as inactive or inconclusive; further: nearly all actives have a fitted effect of over 55% in size); conditions: ER-beta-UAS-bla HEK293T viability, CellTiter-Glo luminescence, 16 h; at 92.4 µM (top of the series)
Source text: U.S. Tox21 Program National Center for Advancing Translational Sciences [NCATS] NIH Chemical Genomics Center [NCGC] U.S. Environmental Protection Agency [EPA] National Institutes of Environmental Health Sciences [NIEHS] National Toxicology Program [NTP] U.S. Food and Drug Administration [FDA] Tox21 Assay Overview: Estrogen receptor (ER), a nuclear hormone receptor, plays an important role in development, metabolic homeostasis and reproduction. Two subtypes of ER, ER-alpha and ER-beta, have similar expression patterns with some uniqueness in both types. Endocrine disrupting chemicals (EDCs) and their interactions with steroid hormone receptors like ER causes disruption of normal endocrine function. To identify the compounds that inhibit ER signaling, an ER-beta-UAS-bla GripTite cell line (Life Technologies, Madison, WI, USA) containing a beta-lactamase reporter gene under the control of an UAS response element was used to screen Tox21 10K compound library. The cytotoxicity of the Tox21 compound library against the ER-beta-bla cell line was tested in parallel by measuring the cell viability using CellTiter-Glo assay in the same wells.
Tox21 Assay Protocol Summary: ER-beta-UAS-bla HEK293T cells were dispensed at 2,000 cells/4 uL of assay medium containing 2% charcoal stripped FBS per well into black wall/clear-bottom 1536-well plates using a Multidrop Combi (ThermoFisher Scientific, Waltham, MA) dispenser. […] Then 1 uL of LiveBLAzer B/G FRET substrate was added using a Flying Reagent Dispenser, the plates were incubated at room temperature for 2 hours, and fluorescence intensity was measured by an Envision plate reader (PerkinElmer, Shelton, CT). For cell viability readout that measures cytotoxicity, 4 uL/well of CellTiter-Glo reagent was added into the assay plates using a FRD. After 30 min incubation at room temperature, the luminescence intensity in the plates was measured using a ViewLux (PerkinElmer) plate reader.

[5] = qHTS assay to identify small molecule agonists or antagonists of the thyroid stimulating hormone receptor (TSHR) signaling pathway - wild type cell line counter screen (AID 1259384); conditions: HEK293 wild type, cAMP HTRF counter-screen, hits give high values
Source text: U.S. Tox21 Program National Center for Advancing Translational Sciences [NCATS] NIH Chemical Genomics Center [NCGC] U.S. Environmental Protection Agency [EPA] National Institutes of Environmental Health Sciences [NIEHS] National Toxicology Program [NTP] U.S. Food and Drug Administration [FDA] Tox21 Assay Overview: TSHR is the receptor for thyrotropin (thyroid stimulating hormone or TSH), a member of the glycoprotein hormone family. TSH is released by the anterior pituitary gland and is the main regulator of thyroid gland growth and development. Upon binding circulating thyrotropin, a G-protein signal cascade activates adenylyl cyclase and […] cAMP concentration is increased. cAMP is a key second messenger involved extensively in cellular signal transduction pathways associated with the majority of G-protein coupled receptors (GPCRs). The activation of these GPCRs by neurotransmitters, lipids, nucleotides, peptides and hormones results in the activation or the inhibition of plasma membrane-bound adenylate cyclase through heterotrimeric G-proteins. A cell-based TSHR-Hek293 assay can be used to identify TSHR agonists. To eliminate the false positive compounds identified from screening a cell-based TSHR-Hek293 cell line, cAMP assay in a wild type Hek293 cells was used as a counter screening.
Tox21 Assay Protocol Summary: Hek293 cells (wild type) were dispensed at 800 cells/4 uL/well in 1536-well white plates using a Multidrop dispenser. After the assay plates were incubated at a 37 C/5% CO2 incubator for 18 hrs, 23 nL of compounds dissolved in DMSO, positive controls or DMSO only was transferred to the assay plate by a pin tool, followed by 1 ul medium containing Ro20-1724. After 30 min of incubation at room temperature, 2.5 ul/well of cAMP-d2 and 2.5 ul/well of anti-cAMP-cryptate were added respectively into the assay plates using a Flying Reagent Dispenser. The plates were incubated at room temperature for 1 hr. The fluorescence intensity in the plates was measured using an Envision plate reader. Each test compound was measured at 15 concentrations and in triplicates.

[6] = biological target: Thyrotropin receptor (Homo sapiens) (UniProt P16473); assay: qHTS assay to identify small molecule antagonists of the thyroid stimulating hormone receptor (TSHR) signaling pathway (AID 1259385); conditions: TSHR-HEK293 cAMP HTRF, TSH-stimulated antagonist mode; further: nearly all actives have a fitted effect of over 20% in size
[7] = biological target: Estrogen receptor beta (Homo sapiens) (UniProt Q92731); assay: qHTS assay to identify small molecule agonists of the estrogen receptor beta (ER-beta) signaling pathway (AID 1259377; active means well fitted activation curve with a large enough effect in the signal ratio in the repeat runs, not every such curve was filed as active; the % refers to the signal ratio); conditions: ER-beta-UAS-bla HEK293T, beta-lactamase FRET ratio, 16 h; at 92.4 µM (top of the series)
[8] = biological target: Estrogen receptor beta (Homo sapiens) (UniProt Q92731); assay: qHTS assay to identify small molecule antagonists of the estrogen receptor beta (ER-beta) signaling pathway (AID 1259378; active means well fitted inhibition curve with a large enough effect in the signal ratio in the repeat runs, not every such curve was filed as active; the % refers to the signal ratio); conditions: ER-beta-UAS-bla HEK293T, beta-lactamase FRET ratio, 16 h; at 92.4 µM (top of the series)
Summary of the method: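 ER-beta-UAS-bla HEK293T (GripTite) cells in 2% charcoal-stripped FBS medium were preincubated 6 hr at 37C, dosed with compound, then stimulated with 1 nM E2 (final) for 16 hr; beta-lactamase reporter read by B/G FRET fluorescence after 2 hr substrate loading.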

[9] = biological target: Androgen receptor (Homo sapiens) (UniProt P10275); assay: qHTS assay to identify small molecule agonists of the androgen receptor (AR) signaling pathway in the presence of an antagonist (AID 1259381); conditions: MDA-kb2 MMTV-luciferase, AR agonist + nilutamide, 16 h; at 92.4 µM (top of the series); further: nearly all actives have a fitted effect of over 15% in size
[10] = biological target: Estrogen receptor (Homo sapiens) (UniProt P03372); assay: qHTS assay to identify small molecule agonists of the estrogen receptor alpha (ER-alpha) signaling pathway in the presence of an antagonist (AID 1259383); conditions: VM7Luc4E2 cells, ERE-luciferase, +ICI-182,780, 22 h; at 92.4 µM (top of the series); further: top concentration of the series differs between compounds; nearly all actives have a fitted effect of over 15% in size
On the % scale 0 is the no-effect control and ±100 the full control effect.

CCC(=O)N(c1ccccc1)C1(COC)CCN(CCn2nnn(CC)c2=O)CC1
inactive: Potency [1] | activity change, negative = cytotoxicity [2] 0.0658% | activity change, negative = cytotoxicity [3] -12.6% | activity change, negative = cytotoxicity [4] -4.35% | cAMP activity change ([5]; at 92.4 µM (top of the series)) -6.87% | activity change, negative = inhibition ([6]; at 92.4 µM (top of the series)) 5.69%

O=[N+]([O-])C(Cl)(Cl)Cl
active: Potency [1] 172 nM
inactive: activation [7] 1.74% | activity, negative = inhibition [8] 14.4% | activity change, negative = cytotoxicity [2] 0.523% | activity change, negative = cytotoxicity [3] 9.26% | activity change, negative = cytotoxicity [4] -0.161% | cAMP activity change ([5]; at 92.4 µM (top of the series)) -3.73% | activity change, negative = inhibition ([6]; at 92.4 µM (top of the series)) -0.763%

CN(CCCl)CCCl
inactive: cAMP activity change ([5]; at 42.5 µM (top of the series)) 0.606% | cAMP activity change ([5]; at 92.4 µM (top of the series)) 1.83% | activity change, negative = inhibition ([6]; at 42.5 µM (top of the series)) 0.469% | activity change, negative = inhibition ([6]; at 92.4 µM (top of the series)) -0.47%
active: Potency [1] 5.44 µM and 15 µM

CCC(=O)N(c1ccccc1)C1(COC)CCN(CCc2cccs2)CC1
inactive: activation [7] -1.69% | activation [9] -7.97% | activity change, negative = cytotoxicity [4] -19.9% | activation [10] -1.26% | cAMP activity change ([5]; at 92.4 µM (top of the series)) -8.52% | activity change, negative = inhibition ([6]; at 92.4 µM (top of the series)) -2.76%

— PubChem BioAssay (Tox21)
